Measurements from patent US5494895A, “Scorpion peptide margatoxin with immunosuppressant activity” (Merck & Co., Inc., priority 1993, dated 1996).

Protein sequences, listed by entry. Tags and fused reporters are not part of them.
UniProt P15384, whole entry: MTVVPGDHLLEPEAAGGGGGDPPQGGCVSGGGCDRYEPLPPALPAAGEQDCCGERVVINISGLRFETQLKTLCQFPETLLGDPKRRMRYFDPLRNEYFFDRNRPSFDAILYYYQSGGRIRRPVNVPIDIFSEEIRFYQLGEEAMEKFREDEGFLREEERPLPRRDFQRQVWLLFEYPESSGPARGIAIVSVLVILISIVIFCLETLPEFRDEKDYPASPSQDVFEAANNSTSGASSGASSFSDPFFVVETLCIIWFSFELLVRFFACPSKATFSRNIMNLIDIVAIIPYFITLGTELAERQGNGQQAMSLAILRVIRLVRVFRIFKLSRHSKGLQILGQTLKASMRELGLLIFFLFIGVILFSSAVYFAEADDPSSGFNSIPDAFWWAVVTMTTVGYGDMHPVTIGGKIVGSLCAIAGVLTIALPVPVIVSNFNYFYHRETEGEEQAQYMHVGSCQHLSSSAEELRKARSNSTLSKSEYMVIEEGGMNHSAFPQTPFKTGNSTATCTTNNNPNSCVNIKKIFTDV

Target: T1, Kv 1.3 (Rattus norvegicus, UniProt P15384)
T1 construct: from tissue; host or cells: rat brain synaptic plasma membrane vesicles
Experiment: [125I]ChTX binding to rat brain synaptic plasma membrane vesicles
Protocol: The potency of MgTX as an inhibitor of [^125 I]ChTX binding to Kv 1.3 was evaluated. The binding of [^125 I]ChTX to either rat brain synaptic plasma membrane vesicles (Kv 1.3 channel; Vazquez et al., J. Biol. Chem. 265, 15564, 1990) or bovine aortic smooth muscle sarcolemmal membranes (Maxi-K channel; Vazquez et al., J. Biol. Chem. 264, 20402, 1989) was determined as described. Briefly, membrane vesicles were incubated with [^125 I]ChTX in the presence or absence of other added agents, until equilibrium was achieved. Separation of bound from free ligand was accomplished by filtration through GF/C glass fiber filters (WHATMAN) that had been presoaked in 0.5% polyethyleneimine. Nonspecific binding was determined in the presence of 10 nM unlabeled ChTX. Data from saturation experiments were analyzed in a Scatchard representation to determine Kd and Bmax values. Triplicate samples were obtained for each experimental point and the data were averaged. The standard deviation of the mean was typically less than 2%. […] As an indication of selectivity, MgTX had no effect on [^125 I]ChTX binding to the Maxi-K channel in smooth muscle membranes at concentrations up to 10 nM.

## CSCC[C@@H]1NC(=O)[C@@H]2CSSC[C@H](NC(=O)[C@H](CO)NC(=O)[C@@H](NC(=O)[C@H](CC(N)=O)NC(=O)[C@@H](NC(=O)[C@H](Cc3ccccc3)NC(=O)[C@@H]3CCC(=O)N3)[C@@H](C)O)C(C)C)C(=O)N[C@@H]([C@@H](C)O)C(=O)N[C@@H]([C@@H](C)O)C(=O)N[C@@H](CO)C(=O)N[C@@H](CCCCN)C(=O)N[C@@H](CCC(=O)O)C(=O)N[C@H]3CSSC[C@H](NC(=O)[C@H](CCCCN)NC(=O)[C@H](CCCCN)NC(=O)[C@H](CC(N)=O)NC1=O)C(=O)N[C@@H](CCCNC(=N)N)C(=O)N[C@H](C(=O)N[C@@H](Cc1ccc(O)c(I)c1)C(=O)N[C@@H](CO)C(=O)O)CSSC[C@H](NC(=O)[C@H](C(C)C)NC(=O)[C@H](CO)NC(=O)[C@H](Cc1c[nH]c4ccccc14)NC3=O)C(=O)N[C@@H](CCC(N)=O)C(=O)N[C@@H](CCCNC(=N)N)C(=O)N[C@@H](CC(C)C)C(=O)N[C@@H](Cc1c[nH]cn1)C(=O)N[C@@H](CC(N)=O)C(=O)N[C@@H]([C@@H](C)O)C(=O)N[C@@H](CO)C(=O)N[C@@H](CCCNC(=N)N)C(=O)NCC(=O)N[C@@H](CCCCN)C(=O)N2 [[^125 I]ChTX, reference compound]
Control conditions, saturation binding
  maximum density of [125I]ChTX sites: 0.43 pmol/mg protein
In the presence of 25 pM MgTX
  receptor density of [125I]ChTX sites: 0.34 pmol/mg protein
